Experimental data published in ChEMBL document CHEMBL5120880, “Peptidomimetics: An Overview of Recent Medicinal Chemistry Efforts toward the Discovery of Novel Small Molecule Inhibitors” (J Med Chem, 2022).

Experiments:
Assay type in all cases: functional
Pseudomonas aeruginosa = assay: Antimicrobial activity against Pseudomonas aeruginosa KCTC 1637 assessed as minimal inhibitory concentration incubated for 18 hrs
Escherichia coli = assay: Antimicrobial activity against Escherichia coli KCTC 1682 assessed as minimal inhibitory concentration incubated for 18 hrs
Staphylococcus aureus = assay: Antimicrobial activity against Staphylococcus aureus KCTC 1621 assessed as minimal inhibitory concentration incubated for 18 hrs
[1] = system: Staphylococcus epidermidis; assay: Antimicrobial activity against Staphylococcus epidermidis KCTC 1917 assessed as minimal inhibitory concentration incubated for 18 hrs

Measured: MIC

CC[C@H](C)[C@H](NC(=O)CN)C(=O)NCC(=O)N[C@@H](C)C(=O)N[C@H](C(=O)N[C@@H](CC(C)C)C(=O)N[C@@H](CCCCN)C(=O)N[C@H](C(=O)N[C@@H](CC(C)C)C(=O)N[C@H](C(=O)N[C@H](C(=O)NCC(=O)N[C@@H](CC(C)C)C(=O)N1CCC[C@H]1C(=O)N[C@@H](C)C(=O)N[C@@H](CC(C)C)C(=O)N[C@H](C(=O)N[C@@H](CO)C(=O)N[C@@H](Cc1c[nH]c2ccccc12)C(=O)N[C@H](C(=O)N[C@@H](CCCCN)C(=O)N[C@@H](CCCNC(=N)N)C(=O)N[C@@H](CCCCN)C(=O)N[C@@H](CCCNC(=N)N)C(=O)N[C@@H](CCC(N)=O)C(=O)N[C@@H](CCC(N)=O)C(N)=O)[C@@H](C)CC)[C@@H](C)CC)[C@@H](C)O)[C@@H](C)O)C(C)C)C(C)C [MELITTIN]
16 µg/mL: all assays above
